Broadly, the IC50 is the concentration at which inhibition is half-maximal. Higher therefore signals a need for much substance.

The structures appear in SMILES notation.

One compound from ChEMBL document CHEMBL5252533, “Dual Kinase-Bromodomain Inhibitors in Anticancer Drug Discovery: A Structural and Pharmacological Perspective” (J Med Chem, 2016) can be followed below.

The target of the assay is Bromodomain testis-specific protein (Homo sapiens, UniProt Q58F21). In words: biochemical. It counts as cell-based.

Turning to `Oc1ccc(-c2nc(-c3ccncc3)c(-c3ccc(F)cc3)[nH]2)cc1` [SB-202190], the IC50 was 2500 nM.
